Curated experimental data: melting point values

Values as listed in the OPERA 2.9 repository of K. Mansouri.

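The OPERA project collected these measurements from public sources as training and test data for property models. One number stands for a compound and property, with no spread given. Method, purity and exact conditions of the single measurements are not given. A value may pool stereoisomers or salt forms, and the file does not say which form was measured. Some upstream entries may be estimates or bounds without being marked so.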

Melting points are in °C.

CCCCCCCC/C=C\CCCCCCCCCCCC(=O)NCCCCCCCCCCCCCCCCCC [13-Docosenamide, N-octadecyl-, (13Z)-] is reported with mp 72.6 °C.
Brc1ccc(-n2cnnn2)cc1 [1-(4-bromophenyl)-1H-tetrazole] is reported with mp 181 °C.
COc1ccccc1-n1cn[nH]c1=S [4-(2-Methoxyphenyl)-2,4-dihydro-3H-1,2,4-triazole-3-thione] is reported with mp 205 °C.
Clc1nc(N2CCCCC2)c2nc(Cl)nc(N3CCCCC3)c2n1 [2,6-Dichloro-4,8-di(piperidin-1-yl)pyrimido(5,4-d)pyrimidine] is reported with mp 253 °C.
CCCCC(CC)COP(=O)(O)O (centres undefined) [2-Ethylhexyl dihydrogen phosphate] is reported with mp -28 °C.
CCn1c(N)nc2ccccc21 [1-Ethyl-1H-benzoimidazol-2-ylamine] is reported with mp 153 °C.
Cc1ccc(NC(=O)C(=O)NN)cc1 [2-hydrazino-N-(4-methylphenyl)-2-oxoacetamide] is reported with mp 205 °C.
COc1c(OC)c(OC(C)=O)c2c(C#N)cccc2c1OC(C)=O [5-Cyano-2,3-dimethoxy-1,4-naphthalenediyl diacetate] is reported with mp 152 °C.
O=C(O)C1CC(=O)N(C2CC2)C1 (centres undefined) [1-cyclopropyl-5-oxopyrrolidine-3-carboxylic acid] is reported with mp 94 °C.
C=CCn1c(=S)[nH]c2sccc2c1=O is reported with mp 213 °C.
CCCC1CCCC(C2CCCC(c3cc(F)c(F)c(F)c3)C2)C1 (centres undefined) is reported with mp 65.6 °C.
CC(C)NC(N)=O [Isopropylurea] is reported with mp 155 °C.
CC(=O)C1CCc2cc(F)ccc2O1 (centres undefined) [1-(6-Fluoro-3,4-dihydro-2H-chromen-2-yl)ethanone] is reported with mp -65.5 °C.
COc1ccc(-c2nn(-c3ccccc3)cc2C=CC(=O)O)cc1 is reported with mp 239 °C.
Cc1ccc2c(c1)Sc1cc(C)ccc1O2 [2,8-Dimethylphenoxathiine] is reported with mp 71.67 °C.
Cc1nn(-c2ccccc2)c(C)c1CC(=O)O [(3,5-dimethyl-1-phenyl-1H-pyrazol-4-yl)acetic acid] is reported with mp 111 °C.
CC(C)=NO[Si](C)(ON=C(C)C)ON=C(C)C is reported with mp -5 °C.
CC1CC(=O)OC(=O)C1 [3-Methylglutaric anhydride] is reported with mp 45.5 °C.
Cc1ccc(-n2c(C)c(C)c3c(N)ncnc32)cc1 is reported with mp 204 °C.
Cc1nc(C(C)C)sc1C(=O)O [4-Methyl-2-(propan-2-yl)-1,3-thiazole-5-carboxylic acid] is reported with mp 170 °C.
CC(=O)NCCc1ccc(S(=O)(=O)Cl)cc1 [p-(2-Acetamidoethyl)benzenesulphonyl chloride] is reported with mp 132 °C.
CC[C@H]1NC(=O)[C@@H](NC(=O)c2ncccc2O)[C@@H](C)OC(=O)[C@H](c2ccccc2)NC(=O)[C@@H]2CC(=O)[C@H](CS[C@@H]3CN4CCC3CC4)CN2C(=O)[C@H](Cc2ccc(N(C)C)cc2)N(C)C(=O)[C@H]2CCCN2C1=O [Quinupristin] is reported with mp 200 °C.
Cc1c(C=O)cc(C#N)n1C [4-Formyl-1,5-dimethyl-1H-pyrrole-2-carbonitrile] is reported with mp 91 °C.
CC1(c2cccs2)NC(=O)NC1=O (centres undefined) [5-methyl-5-thien-2-ylimidazolidine-2,4-dione] is reported with mp 138 °C.
S=c1nc[nH]c2ccsc12 [thieno[3,2-d]pyrimidine-4-thiol] is reported with mp 272 °C.
C/C=C(/C)C(=O)O[C@@H]1CC(C)(C)C[C@H]2C3=CC[C@@H]4[C@@]5(C)CCC(=O)C(C)(C)[C@@H]5CC[C@@]4(C)[C@]3(C)CC[C@@]12C(=O)O is reported with mp 297 °C.
O=C(CCl)Nc1ccc(S(=O)(=O)N2CCOCC2)cc1 [2-Chloro-N-[4-(morpholine-4-sulfonyl)phenyl]acetamide] is reported with mp 146 °C.
O[C@@H]1OC[C@@H](Cc2ccc3c(c2)OCO3)[C@@H]1Cc1ccc2c(c1)OCO2 [Cubebin] is reported with mp 132 °C.
Cc1ccc(C(=O)O)cc1S(=O)(=O)Cl [3-chlorosulfonyl-4-methylbenzoic acid] is reported with mp 144 °C.
O=C(CCl)NC(=O)Nc1ccccc1 [N-(anilinocarbonyl)-2-chloroacetamide] is reported with mp 162 °C.
CCOC(=O)NS(=O)(=O)c1ccc(Cl)s1 [Ethyl N-[(5-chloro-2-thienyl)sulfonyl]carbamate] is reported with mp 52.5 °C.
Cc1ccc(-c2csc(N)n2)s1 [4-(5-Methylthiophen-2-yl)-1,3-thiazol-2-amine] is reported with mp 130 °C.
NC(=O)c1ccc(N=C(O)c2ccc(N)cc2)cc1 [4-Amino-N-(4-carbamoylphenyl)benzene-1-carboximidic acid] is reported with mp 319 °C.
Nc1ccccc1NC(=O)c1ccncc1 [N-(2-Aminophenyl)pyridine-4-carboxamide] is reported with mp 180 °C.
Cc1ccc(S(=O)(=O)N2CCCC(C(=O)O)C2)cc1 (centres undefined) [1-(4-Methylbenzene-1-sulfonyl)piperidine-3-carboxylic acid] is reported with mp 150 °C.
Cc1cc(N(CCO)CCO)ccc1N=Nc1ccc([N+](=O)[O-])cc1 [C.I. Disperse Red 17] is reported with mp 160 °C.
Cc1ccc(S(=O)(=O)N2CCCCC2)cc1N [2-Methyl-5-(piperidine-1-sulfonyl)aniline] is reported with mp 108 °C.
C=C[Si](C)(C)Cl [Chloro(dimethyl)vinylsilane] is reported with mp -20.07 °C.
CC(=O)c1ccc2c3c(cccc13)CC2 [Ethanone, 1-(1,2-dihydro-5-acenaphthylenyl)- (9CI)] is reported with mp 59 °C.
COCCCOc1cc(C(O)[C@@H](C[C@H](NC(=O)OC(C)(C)C)[C@@H]2C[C@@H](C(C)C)C(=O)O2)C(C)C)ccc1OC (stereo not given in full) is reported with mp 74.2 °C.
CCOC(=O)[C@@H]1C2CCC(CC2)[C@H]1Nc1nc(Cl)ncc1F is reported with mp 129.5 °C.
Nc1c(-c2ccccc2)nc2sccn12 [6-phenylimidazo[2,1-b][1,3]thiazol-5-amine] is reported with mp 150 °C.
COC(=O)Nc1ccc(Cl)c(Cl)c1 [Swep] is reported with mp 113 °C.
O=C1C=CC=CC1=C1NN=C2CCCCCN21 is reported with mp 272 °C.
COc1ccccc1C(=O)NS(=O)(=O)c1ccc(C(=O)Cl)cc1.COc1ccccc1C(=O)NS(=O)(=O)c1ccc(C(=O)Cl)cc1 [4-((2-Methoxybenzoyl)sulfamoyl)benzoyl chloride] is reported with mp 148 °C.
Cc1sc(N)nc1-c1ccc(Cl)cc1 [4-(4-chlorophenyl)-5-methyl-1,3-thiazol-2-amine] is reported with mp 147 °C.
CN(CC(=O)O)C(N)=O [Carbamoyl Sarcosine] is reported with mp 142 °C.
Cc1ccc(C)c(S(=O)(=O)NN)c1 [2,5-dimethylbenzenesulfonohydrazide] is reported with mp 76 °C.
Cc1[nH]ncc1[N+](=O)[O-] [1H-Pyrazole, 3-methyl-4-nitro-] is reported with mp 132.5 °C.
O=P1(Cc2ccccc2)OCC2(CO1)COP(=O)(Cc1ccccc1)OC2 (centres undefined) is reported with mp 256 °C.
CCNS(=O)(=O)c1ccc(C(=O)O)cc1 [4-[(Ethylamino)sulfonyl]benzoic acid] is reported with mp 220 °C.
N#CCc1ccc2ccccc2n1 [2-(quinolin-2-yl)acetonitrile] is reported with mp 46 °C.
c1ccc(-c2ccc3[nH]ccc3c2)cc1 [5-phenyl-1H-indole] is reported with mp 75 °C.
CCOc1ccc(OCC2CO2)cc1 (centres undefined) [2-[(4-ethoxyphenoxy)methyl]oxirane] is reported with mp 54 °C.
O=c1ccn(-c2ccc(Cl)cc2)[nH]1 [1-(4-Chlorophenyl)-3-hydroxypyrazole] is reported with mp 190 °C.

Excerpt, the final 5 entries:

| compound | name | mp (°C) |
|---|---|---|
| CCNS(=O)(=O)c1ccc(C(=O)O)cc1 | 4-[(Ethylamino)sulfonyl]benzoic acid | 220 |
| N#CCc1ccc2ccccc2n1 | 2-(quinolin-2-yl)acetonitrile | 46 |
| c1ccc(-c2ccc3[nH]ccc3c2)cc1 | 5-phenyl-1H-indole | 75 |
| CCOc1ccc(OCC2CO2)cc1 (centres undefined) | 2-[(4-ethoxyphenoxy)methyl]oxirane | 54 |
| O=c1ccn(-c2ccc(Cl)cc2)[nH]1 | 1-(4-Chlorophenyl)-3-hydroxypyrazole | 190 |